# Assay outcomes deposited in PubChem BioAssay by Broad Institute.
# A selection: hits, their analogues and other compounds. The true share with any hit is near 1.3%.
# E-sel inducer: E-selectin induction on HUVECs | P16581 | HUVEC E-selectin immunofluorescence imaging; normalized: neutral wells 0, TNF-alpha wells 100 | activation, % at 7.58 µM | 0.37% of 260,000 active;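 active means mean E-selectin-positive cell signal at least 10% of the positive control, reached in at least 60% of replicates, without over 20% cell loss; inconclusive means no rule given, readout overlaps actives, possibly toxicity-flagged; inactive means the rest, including those meeting only one limit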
#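 Material: HUVEC primary endothelial cells; Amount: 3,000 cells per well; Dosing: single concentration; Medium: EGM-2 growth medium on 0.1% gelatin-coated wells; Read-out basis: percent E-selectin-positive cells; Signal: immunofluorescence imaging; Control set: TNF-alpha, DMSO.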
# AF4-AF9 inh: blocks AF4 peptide binding to human AF9. AID 651704. AlphaScreen, biotin-AF4 peptide binding to FLAG-AF9. inhibition, % at 10 µM. P42568. 0.47% of 350,000 active;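 active means every replicate reaching a set inhibition limit, whatever the replicate mean, cut at about 25% in these data; inconclusive means mean inhibition reaches that limit but some replicates miss it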;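 further: 0% = plate neutral control median and 100% = total signal loss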
# ARNT TACC3 PPI: disrupts binding between human ARNT and TACC3; AID 623870; inhibition, % at 9.99 µM; 0.66% of 390,000 active; AlphaScreen His-ARNT PAS-B/GST-TACC3 binding, luminescence; TACC3 fragment carries E629A point mutation;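 active means mean inhibition of replicates at least 50% and at least half of replicates each reaching 50%; inconclusive means half or more replicates reach 50% but mean below 50%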;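 further: 0% = complete ARNT plus TACC3 wells and 100% = ARNT alone without TACC3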
# ERAP1 HTS inh: blocks human ERAP1 aminopeptidase activity; recombinant ERAP1, Leu-AMC fluorescence, 60 min; inhibition, % at 10.7 µM; 0.15% of 340,000 active;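 active means mean replicate inhibition of at least 30%, or all replicates individually reaching that 30% level; inactive means mean below 30% and not every replicate reaching it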;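 further: 0% = neutral control wells and 100% = L-leucinethiol positive control wells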
# Yeast UUG start: yeast start codon fidelity modulation; actives 0.13% (n = 350,000); activity score, % at 18.7 µM; S. cerevisiae UUG-firefly luciferase reporter, luminescence/redox ratio;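 active = replicate mean at a twofold rise or more, about +100% in these data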;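 note: firefly luciferase made from a UUG start codon reports start codon fidelity; reporter light over untreated wells divided by growth signal over untreated wells; some hits fall short of that in this replicate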
# S100A4 MyoIIA: S100A4-myosin IIA interaction inhibition; S100A4/TAMRA-MyoIIA peptide fluorescence polarization; inhibition, % at 10.7 µM; 0.14% of 360,000 active; AID 652163;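 active means mean inhibition of at least 70% across replicates, with every replicate also reaching that level; inconclusive means mean inhibition reaches 70% but some replicates fall short; inactive means mean inhibition below 70%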
#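 Test system: S100A4 monomer protein. Medium: HEPES buffer with Ca2+, pH 7.2. Reagent: fluorescent myosin IIA peptide, 5 nM. Compound dosing: single-point compound testing. Timing: 5 min between mix addition and reading. Benchmarks: DMSO neutral and TFP positive wells.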
# Starred values were filed as active, the others as inactive; u = inconclusive; x = no result.
1. C[C@H]1CN([C@@H](C)CO)C(=O)c2cccc(NS(C)(=O)=O)c2O[C@@H]1CN(C)CC1CC1
2. C[C@H]1CN([C@@H](C)CO)C(=O)c2cccc(NS(C)(=O)=O)c2O[C@H]1CN(C)S(C)(=O)=O
3. C[C@@H]1CN([C@H](C)CO)C(=O)c2cc(NS(=O)(=O)c3cn(C)cn3)ccc2O[C@@H]1CN(C)Cc1ccncc1
4. C[C@H]1CN([C@@H](C)CO)C(=O)c2cc(NC(=O)CCN3CCOCC3)ccc2O[C@H]1CN(C)Cc1ccncc1
5. C[C@H]1CN([C@@H](C)CO)C(=O)c2cc(NC(=O)CCN3CCOCC3)ccc2O[C@@H]1CN(C)C(=O)NC1CCCCC1
Screen / compound no.,1,2,3,4,5
E-sel inducer,3.0,36.4*,-4.3,-11.1,9.5
AF4-AF9 inh,-3.8,-3.3,-3.4,-1.4,-2.2
ARNT TACC3 PPI,-7.1,-1.8,-2.8,6.0,-3.7
ERAP1 HTS inh,-2.1,0.0,-0.3,1.6,-0.4
Yeast UUG start,6.7,-20.0,-13.5,x,10.1
S100A4 MyoIIA,3.2,-6.0,-22.7,-43.6,-3.2

6. CC(C)NC(=O)N(C)C[C@H]1Oc2ccc(NC(=O)CCN3CCOCC3)cc2C(=O)N([C@@H](C)CO)C[C@H]1C
7. C[C@@H]1CN([C@@H](C)CO)C(=O)c2cc(NC(=O)CCN3CCOCC3)ccc2O[C@H]1CN(C)Cc1ccncc1
8. CC(C)NC(=O)N(C)C[C@@H]1Oc2ccc(NC(=O)CCN3CCOCC3)cc2C(=O)N([C@H](C)CO)C[C@H]1C
9. C[C@@H]1CN([C@H](C)CO)C(=O)c2cc(NS(=O)(=O)c3cn(C)cn3)ccc2O[C@H]1CN(C)Cc1ccncc1
10. CC(=O)N(C)C[C@@H]1Oc2cc(C#CC(C)C)ccc2S(=O)(=O)N([C@@H](C)CO)C[C@H]1C
Screen / compound no.,6,7,8,9,10
E-sel inducer,46.3*,31.5*,65.5*,92.4*,-0.2
AF4-AF9 inh,0.3,-1.7,-1.5,-3.5,-15.0
ARNT TACC3 PPI,-6.6,x,-10.5,9.6,-4.4
ERAP1 HTS inh,-5.4,-2.9,-0.4,-2.0,-5.2
Yeast UUG start,-0.5,x,-9.8,-16.5,2.1
S100A4 MyoIIA,-4.1,24.8,5.3,-0.6,-26.3

11. Cc1noc(C)c1S(=O)(=O)N(C)C[C@@H]1Oc2ccc(NS(=O)(=O)c3cccs3)cc2C(=O)N([C@H](C)CO)C[C@@H]1C
12. CN1/C(=C/C(=S)NC(=O)C2(C)CC2(Cl)Cl)C(C)(C)c2ccccc21 (stereo not drawn)
13. CCOC(=O)C1CCCN(Cc2nc(N)nc(Nc3ccccc3)n2)C1 (stereo not drawn)
14. Cc1ccc(Nc2nc(N)nc(CN3CCCCCC3)n2)cc1
15. Nc1nc(CN2CCN(C(c3ccccc3)c3ccccc3)CC2)nc(Nc2ccccc2)n1
Screen / compound no.,11,12,13,14,15
E-sel inducer,0.0,x,x,x,x
AF4-AF9 inh,4.1,u,x,x,9.2
ARNT TACC3 PPI,1.9,47.8*,47.7*,50.3*,6.2
ERAP1 HTS inh,-0.9,0.1,x,x,2.7
Yeast UUG start,1.9,-27.5,-20.2,-25.2,x
S100A4 MyoIIA,-20.6,-36.8,x,x,-1.3

16. Nc1nc(CN2CCCCCC2)nc(Nc2ccccc2)n1
17. CC1CC(C)CN(Cc2nc(N)nc(Nc3ccccc3)n2)C1 (stereo not drawn)
18. CCC(=O)N[C@@H]1CC[C@@H](CC(=O)OC)O[C@H]1CO
19. C[C@@H]1CCCCO[C@H](CN(C)S(=O)(=O)c2ccccc2)[C@@H](C)CN([C@@H](C)CO)C(=O)c2cc(NC(=O)c3ccccc3)ccc2O1
20. CC(=O)Nc1ccc(NC(=O)C(C)OC(=O)CCCN=C2NS(=O)(=O)c3ccccc32)cc1 (stereo not drawn)
Screen / compound no.,16,17,18,19,20
E-sel inducer,x,x,-0.2,x,x
AF4-AF9 inh,x,x,0.9,0.5,0.6
ARNT TACC3 PPI,51.6*,2.6,-7.5,3.5,-1.5
ERAP1 HTS inh,x,x,0.2,-1.1,0.3
Yeast UUG start,-18.1,-23.5,-4.9,13.2,-18.0
S100A4 MyoIIA,x,x,-22.5,-15.1,136.2*

21. CC(=O)c1cccc(NC(=O)C(C)OC(=O)CCCN=C2NS(=O)(=O)c3ccccc32)c1 (stereo not drawn)
22. O=C(NC1CCCCC1)N1CC(=O)N2[C@@H](CO)[C@@H](c3ccc(-c4cccnc4)cc3)[C@@H]2C1
23. Cc1ccc2c(c1)C=CC(C#N)N2C(=O)c1ccccc1 (stereo not drawn)
24. COc1ccc(C(=O)N2c3ccccc3C=CC2C#N)cc1 (stereo not drawn)
25. CC(C)CCNC(=O)c1cn(C)c2ccc(S(=O)(=O)N3CCCC3)cc2c1=O
Screen / compound no.,21,22,23,24,25
E-sel inducer,x,0.3,x,91.1*,36.8*
AF4-AF9 inh,1.1,-3.3,1.2,1.6,-2.6
ARNT TACC3 PPI,-0.5,x,-0.7,x,6.6
ERAP1 HTS inh,-1.9,3.5,6.9,5.8,-1.5
Yeast UUG start,x,x,x,x,3.0
S100A4 MyoIIA,-8.8,0.5,1.4,-3.1,-1.7

26. CCc1ccc(N2CC(C(=O)Nc3ccc(F)cc3)CC2=O)cc1 (stereo not drawn)
27. CC(O)CNc1ncnc2nc[nH]c12 (stereo not drawn)
28. CC(C)=NNc1ncnc2nc[nH]c12
29. Cc1ccc(S(=O)(=O)Nc2ccc(O)c3cccnc23)cc1
30. Cc1ccc(S(=O)(=O)Nc2ccc(O)c3ncccc23)cc1
Screen / compound no.,26,27,28,29,30
E-sel inducer,41.6*,0.2,x,x,x
AF4-AF9 inh,0.6,x,-2.2,3.7,25.6*
ARNT TACC3 PPI,-4.6,-21.6,72.3*,x,x
ERAP1 HTS inh,-3.2,x,-10.8,0.9,-1.2
Yeast UUG start,-4.2,-13.2,x,-30.0,-32.1
S100A4 MyoIIA,-1.7,x,9.3,-4.7,-2.0

# Entries of single compounds from above. Screens in order: E-sel inducer | AF4-AF9 inh | ARNT TACC3 PPI | ERAP1 HTS inh | Yeast UUG start | S100A4 MyoIIA
# CC(C)=NNc1ncnc2nc[nH]c12 as listed: x | -2.2 | 72.3* | -10.8 | x | 9.3
# Cc1ccc(S(=O)(=O)Nc2ccc(O)c3cccnc23)cc1 as listed: x | 3.7 | x | 0.9 | -30.0 | -4.7

# Arranged by value in ERAP1 HTS inh (ascending): some entries from above.
entry	Compound	ERAP1 HTS inh
30	Cc1ccc(S(=O)(=O)Nc2ccc(O)c3ncccc23)cc1	-1.2
8	CC(C)NC(=O)N(C)C[C@@H]1Oc2ccc(NC(=O)CCN3CCOCC3)cc2C(=O)N([C@H](C)CO)C[C@H]1C	-0.4
18	CCC(=O)N[C@@H]1CC[C@@H](CC(=O)OC)O[C@H]1CO	0.2

# More structures follow:
31. CN1C(=O)c2cc(NC(=O)C3CCOCC3)ccc2OC[C@@H]2O[C@@H](CC(=O)NC3CCCC3)CC[C@H]21
32. O=C(N/N=C/c1cc([N+](=O)[O-])ccc1O)C1CC1
33. O=C1NCCCC1C(=O)N/N=C/c1cc([N+](=O)[O-])ccc1O (stereo not drawn)
34. O=C(N/N=C/c1cc([N+](=O)[O-])ccc1O)c1cccc(N2CCCC2=O)c1
35. O=C(NN=Cc1ccccc1O)C1CC1
Screen / compound no.,31,32,33,34,35
E-sel inducer,-0.1,0.0,0.0,-0.1,0.0
AF4-AF9 inh,0.5,-9.9,-7.0,22.3,2.5
ARNT TACC3 PPI,-2.6,54.2*,69.7*,77.8*,38.7*
ERAP1 HTS inh,0.4,-1.1,x,4.9,-0.5
Yeast UUG start,3.4,-10.0,7.6,0.9,-9.1
S100A4 MyoIIA,6.3,-6.4,-3.1,1.4,0.2

36. C[C@@H]1CN([C@@H](C)CO)C(=O)c2cc(NS(C)(=O)=O)ccc2O[C@H]1CN(C)S(=O)(=O)c1ccc(Cl)cc1
37. Cc1ccc(S(=O)(=O)Nc2ccc3c(c2)CC(=O)N([C@@H](C)CO)C[C@@H](C)[C@@H](CN(C)C)O3)cc1
38. O=C(CCN1CCCCC1)N[C@H]1CC[C@@H](CCn2cc(-c3cccc(F)c3)nn2)O[C@H]1CO
39. O=C(C[C@H]1CC[C@H](NC(=O)CC2CC2)[C@H](CO)O1)NCc1ccc(Cl)cc1
40. CCCNC(=O)N1CC2(CN(C(=O)COC)C2)c2c(n(C)c3cc(OC)ccc23)[C@H]1CO
41. O=C(N/N=C/c1cc([N+](=O)[O-])ccc1O)C(O)(c1ccccc1)c1ccccc1
42. O=[N+]([O-])c1ccc(O)c(/C=N/Nc2ccccc2Cl)c1
43. Cc1c(NC(=S)N/N=C/c2ccc(O)cc2)c(=O)n(-c2ccccc2)n1C
Screen / compound no.,36,37,38,39,40,41,42,43
E-sel inducer,1.8,-0.7,-0.1,-0.1,0.1,x,x,x
AF4-AF9 inh,x,1.7,0.6,-0.5,-2.4,1.7,0.6,x
ARNT TACC3 PPI,x,-1.0,-0.5,-1.2,x,48.7*,-5.1,2.1
ERAP1 HTS inh,x,-1.1,-1.9,4.7,-1.0,-3.6,-3.4,x
Yeast UUG start,-6.6,-19.8,-11.0,x,x,-25.0,-10.7,-5.9
S100A4 MyoIIA,x,-0.2,4.6,-57.8,2.6,2.7,-5.1,x
